Format in all cases: physicochemical
The nature of series [1]: Quantum yield (QY) measurement. The following applies: MeOH. As to the method: Quantum yield (QY) measurement: 5 mL sample solution was pipetted into a 1.0 cm path-length quartz cuvette with a tube (Hellma, Müllheim, Germany), and the absolute quantum yield was measured on an absolute PL quantum yield spectrometer C11347 (Hamamatsu Photonics, Shizuoka, Japan) at ambient temperature. The relevant blanks, namely anhydrous MeOH, MeOH solutions of ZnCl2 (CuCl2), or DMSO solution of ZnCl2, were used as background and subtracted. At least five measurements were performed and averaged for accuracy.
Fluorescence spectroscopy and quantum yield (QY) measurement: 600 μL sample solution was pipetted into a 1.0 cm path-length quartz cuvette, and the spectrum was collected using a FluoroMax-4 Spectrofluorometer (Horiba Jobin Yvon, Kyoto, Japan) at ambient temperature. The excitation and emission wavelengths were set at 300-500 nm and 400-650 nm, respectively, with a slit of 2 nm. Absolute fluorescence QY measurements were performed using Quanta-Phi integrating sphere connected to Fluoromex-4.

Series [2] is described as follows: Morphology and size of self-assemblies (AFM, DLS, TEM). The following applies: self-assemblies in MeOH. As to the method:
Dynamic light scattering (DLS): 850 μL of the sample solution was introduced into a DTS1070 folded capillary cell (Malvern, Worcestershire, U.K.), and the size was measured using a Zetasizer Nano ZS analyzer (Malvern Instruments, Malvern, UK) at 25.0° C. and a backscatter detector (173°). Three measurements were performed and averaged for accuracy.
Atomic force microscopy (AFM): 4 μL of sample solution was dropped onto a freshly cleaved mica surface and let it dry. The mica was then rinsed with water and purged dried gently with nitrogen. A topographic image was recorded under a NanoWizard 3 BioScience AFM (JPK, Berlin, Germany) in the tapping mode at ambient temperature, with 512×512 pixel resolution and a scanning speed of 1.0 Hz.
Transmission electron microscopy (TEM): A carbon-coated copper grid was placed on a 10 μL cyclo-dipeptide droplet for 1 minute and then blotted. Next, the washed grid was placed on a 10 μL droplet containing 4% (w/v) uranyl acetate solution for 1 min and then blotted. Samples were examined using Tecnai G2 Spirit TEM (FEI) at 80 kV.
Atomic force microscopy (AFM): 5 μL of sample solution was dropped onto a freshly cleaved mica surface and dried by N2 purge (99.99%). […] A topographic image was recorded under a Dimension icon AFM (Bruker) in the tapping mode at ambient temperature, with a 512×512-pixel resolution and a scanning speed of 1.0 Hz. […]

Series [3] is described as follows: Fluorescence characterization (excitation/emission) of self-assemblies. As to the method: UV-Visible fluorescence characterization: 600 μL sample solution was pipetted into a 1.0 cm path-length quartz cuvette, and the spectrum was collected using a FluoroMax-4 Spectrofluorometer (Horiba Jobin Yvon, Kyoto, Japan) at ambient temperature. For molecular fluorescence of some experiments, the emission wavelength was set at 350 nm with a slit of 3 nm, and the excitation wavelength was set at 200-330 nm with a slit of 3 nm. For self-assembly fluorescence, the excitation wavelength was set at 370 nm with a slit of 3 nm, and the emission wavelength was set at 380-700 nm with a slit of 3 nm. For excitation-dependent maximal emission evolution experiment, the excitation wavelengths were set at 300-450 nm with a slit of 3 nm, and the emission wavelengths were set at 380-600 nm with a slit of 3 nm. […] Emission and excitation wavelengths, slit dimensions and background solutions were adjusted per the measured sample and are as indicated below. […]
Fluorescence spectroscopy and quantum yield (QY) measurement: 600 μL sample solution was pipetted into a 1.0 cm path-length quartz cuvette, and the spectrum was collected using a FluoroMax-4 Spectrofluorometer (Horiba Jobin Yvon, Kyoto, Japan) at ambient temperature. […] Absolute fluorescence QY measurements were performed using Quanta-Phi integrating sphere connected to Fluoromex-4.

Where [4] appears, read: excitation set at 350 nm if maximal excitation less than 350 nm.

Several values for one entry are separate records, joined by “and”; a condition that tells them apart may be missing. Identical values can stand only once.

“tyrosine-tryptophan cyclic dipeptide [cyclo-WY]” yielded a QY in series [1] (setting [4]) of 3%.
“tryptophan-tryptophan cyclic dipeptide [cyclo-WW]”: the QY in series [1] (setting [4]) was 2%.
On to cyclo-diphenylalanine [cyclo-FF], for which the Structures entry in series [2] was “nanofibers”. This substance also registered an emission in series [3] (DMSO, Ex 450 nm (cyclo-FF), Ex 480 nm (cyclo-YY)) of 530 nm. Moreover, in series [3] (maximal emission, MeOH), the “Emission (λEm)” value is “no detectable emissions”.
Regarding “phenylalanine-histidine cyclic dipeptide [cyclo-HF]”, the QY in series [1] (setting [4]) is given as 2%.
As to “tryptophan-histidine cyclic dipeptide [cyclo-WH]”, the QY in series [1] (setting [4]) is 3% and 2%.
Consider “histidine-tyrosine cyclic dipeptide [cyclo-HY]”, for which the figures for the QY in series [1] (in the presence of Zn(II)) and in series [1] (setting [4]) were 9% and 3%, respectively.

(Values after patent US20210395312A1, “QUANTUM CONFINED PEPTIDE ASSEMBLIES AND USES THEREOF” (Ramot at Tel-Aviv University Ltd., priority 2019, published 2021).)
